## scFv variants of Ab-14 (heavy chain) against a SARS-CoV-2 spike peptide

Reference: Engelhart et al. 2022, doi:10.1038/s41597-022-01779-4. File: FLAb, binding data.

Antigen: PDVDLGDISGINAS, a 14-residue peptide of the SARS-CoV-2 spike HR2 region.

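The starting antibody came from a phage panning campaign against this peptide. Library AAYL49 holds single substitutions and randomly drawn double and triple substitutions in the CDRs. Affinity was read by AlphaSeq, a pooled yeast mating assay with surface-displayed partners. Mating (16 h, 30 °C) was followed by selection of diploids and sequencing of their barcodes. Read counts were normalised to the haploid input and turned into Kd by a linear fit to BCL2-family pairs of known affinity, for each replicate. Mating was done three times.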

Ab-14 is the parent antibody, in scFv form: VH, then the linker GGGGSGGGGSGGGGS, then VL. The light chain is unchanged in all variants.
VH: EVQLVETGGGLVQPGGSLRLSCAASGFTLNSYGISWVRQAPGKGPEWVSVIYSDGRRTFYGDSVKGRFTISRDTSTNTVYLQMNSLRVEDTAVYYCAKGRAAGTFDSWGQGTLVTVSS
VL: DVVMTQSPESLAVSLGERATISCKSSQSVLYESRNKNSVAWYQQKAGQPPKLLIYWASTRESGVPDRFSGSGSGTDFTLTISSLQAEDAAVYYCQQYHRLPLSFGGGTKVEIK

The parent's heavy chain CDRs are GFTLNSYGIS, VIYSDGRRTFYGDSVK, GRAAGTFDS; each variant's own CDRs replace them letter for letter.
The Kd shown is the geometric mean over detected replicates; a lower Kd is a better binder.
An entry "nd" has no value in the source: the pair was not observed among the diploids in any replicate. This suggests poor binding but is not conclusive.
Empty control strains, which show no peptide, gave a signal in 15% of pairings with library AAYL49; the median was 11 µM and 95% of these signals were weaker than 680 nM. No background was subtracted.

Kd,replicates with signal,CDR-H1,CDR-H2,CDR-H3
nd,0/3,GFTLNSYGIS,VIMSDGRRTFYGLSVV,GRAAGTFDS
52 nM,3/3,GFTLNSYGIS,VIYSDGRRTQYGDLVK,RRAAGTFDS
nd,0/3,GFTLNSYGIS,KIYDDGRRWFYGDSVK,GRAAGTFDS
nd,0/3,DFTLNSYGIS,CIYSDGRRTFYGDSVK,GRANGTFDS
3.4 µM,1/3,GFTLNSYFIR,VIYSDGRRTFYGDSVK,GRLAGTFDS
nd,0/3,GFTLNSYGIP,VIYSDGRRTQYGDSVK,GRAAGEFDS
nd,0/3,GFTLNSYGIS,VEYSDGRRTFYGDSEK,GRAAGTFDD
980 nM,1/3,GFTLNSYGIS,VIYDDGRRTFYGDSVK,GGAAGTFDL
350 nM,3/3,GFTLNDYGIS,VIYSDGRQLFYGDSVK,GRAAGTFDS
nd,0/3,GPTLNSYGIS,VIYSDGRRTFYGDSVK,GFARGTFDS
nd,0/3,GFTLNSYGIS,VIYSDGRRTFRGDSVL,GRAAWTFDS
nd,0/3,GFTLNSYGTS,VIYSDGRRTFAGDSWK,GRAAGTFDS
nd,0/3,GFTLNSYGIS,VIYQDGRRTFYGDSVK,GRCAGTFDS
96 µM,1/3,GQTLNSYGIS,VIYSDKRRCFYGDSVK,GRAAGTFDS
nd,0/3,GFTLNSYCIS,VMYSDGDRTFYGDSVK,GRAAGTFDS
30 µM,2/3,GFTLNSYGIS,MIYIDGRRTFYGDSVK,GRIAGTFDS
69 µM,1/3,WFTLNSYGIH,VIYSDRRRTFYGDSVK,GRAAGTFDS
nd,0/3,GFTLNSYWRS,VIYSDGRRTFYGDNVK,GRAAGTFDS
nd,0/3,GFTLNSYGIS,VIYSDGRRTFYGPSVK,GRMAGYFDS
160 nM,3/3,GFNLNSYGIS,VIYSDGRRTFYGDSVK,GRAAGTADS
nd,0/3,GFCLNSYGIS,VIYSDGRRTFYRDSGK,GRAAGTFDS
29 nM,3/3,GFTLKSYGIS,VIYSDGRRTFYGDMVK,GRAAGTFQS
65 nM,3/3,GFTLWSYGIS,VIYSDGRRTFYGDSVK,GRAAGTFIR
nd,0/3,KFTLNSYGIS,VIYSDGRRTFYYDSVK,GRAAGTFDS
58 nM,3/3,NFTLNSYGIS,VIYSDGRRTFYGDSVK,GRAAGYFDS
nd,0/3,GYTLNSYGIS,VIYSDGGRTFYGDSVK,GRAAGWFDS
nd,0/3,GFTDNSYGIS,VIYSDGRREFYKDSVK,GRAAGTFDS
27 µM,2/3,GFTHNSYGIS,VRYSDGRRTFYGDSVK,GRAAVTFDS
1.9 µM,1/3,GFTLKSYGIS,VIYSDGRMTFYGDSVK,GRAAGTEDS
nd,0/3,GFTLNSYGIS,VIYSDWRRTFYGDSVN,GRAAGTFYS
4.7 µM,3/3,RQTLNSYGIS,VIYSDGRRTFYGDSIK,GRAAGTFDS
nd,0/3,GFTLNSKGIS,VIYSDGRRTFYGDSVK,GRAIRTFDS
nd,0/3,EFTLNSPGIS,VIYSDTRRTFYGDSVK,GRAAGTFDS
nd,0/3,GSTLNSYGIS,VIMSDGRRTQYGDSVK,GRAAGTFDS
nd,0/3,GFTLNSYGIS,VIYSDGRRTFYGDSVE,IKAAGTFDS
nd,0/3,GFTLNSYGIS,QIYSDGRRTFYGDSTK,GRAAGTFHS
nd,0/3,GFTLNSGGIS,VIYSDCRRTFYGQSVK,GRAAGTFDS
3.1 nM,3/3,GFTLNSYGIS,VIYSDGRRTFYGDSVK,RRAKTTFDS
nd,0/3,GFWLNSYSIS,VIYSDGRRQFYGDSVK,GRAAGTFDS
nd,0/3,GFTGNSYVIS,VIYSDGRRTFYGDSVK,GRAAGTFDF
1.6 µM,3/3,GFCLNSYGIS,VMYSDGRRTFYGDSVL,GRAAGTFDS
54 nM,3/3,GSTLRSYGIS,VIYSDGRRTFYGDSVK,GRAAGTPDS
22 µM,3/3,AFTLNSYGIS,CIYSDGYRTFYGDSVK,GRAAGTFDS
nd,0/3,GFELNSYGIS,VIYSDGRRPFYEDSVK,GRAAGTFDS
nd,0/3,GPTYNSYGIS,VIYYDGRRTFYGDSVK,GRAAGTFDS
22 nM,3/3,GFTLNSYGIS,VIYSDGRRTFYGDSVK,ERAAGTVDS
nd,0/3,GFTLNSYGIS,VIDSDGRRFFYGDSVK,GRAAGTPDS
15 µM,2/3,GFTLNSYGIS,VIYSDGRRTFYGDSVK,GEAYGTFDS
160 nM,1/3,GLTLNSYGIS,VIFSDGRRWFYGDSVK,GRAAGTFDS
60 µM,2/3,GFTLNNYGIS,VIYCDGNRTFYGDSVK,GRAAGTFDS
nd,0/3,GQTLNSYDIS,VIYSDGRRTFYGDSYK,GRAAGTFDS
nd,0/3,GFTLNSYGAS,VIYSCGRRTCYGDSVK,GRAAGTFDS
nd,0/3,GFTLNSYGIS,VINSDGRRTFYGDSVK,HRAAGMFDS
nd,0/3,GFTLNSYGIT,VIYSDGQRTFYGDSVK,GRKAGTFDS
nd,0/3,GFYLNGYGIS,VIYSDGRITFYGDSVK,GRAAGTFDS

4 of these entries, quoted again:

| CDR-H1 | CDR-H2 | CDR-H3 | Kd | replicates with signal |
|---|---|---|---|---|
| RQTLNSYGIS | VIYSDGRRTFYGDSIK | GRAAGTFDS | 4.7 µM | 3/3 |
| GFTLNSYGIS | VIYSDGRRTQYGDLVK | RRAAGTFDS | 52 nM | 3/3 |
| GFTHNSYGIS | VRYSDGRRTFYGDSVK | GRAAVTFDS | 27 µM | 2/3 |
| GFTLNSYGIT | VIYSDGQRTFYGDSVK | GRKAGTFDS | nd | 0/3 |